Biological target: A20 ZnF4 590-635 (Homo sapiens) (UniProt P21580)
Assay: NMR

By UniProt entry, the sequences of proteins in these tests, tags left out. Residues count along the entry.
UniProt P21580, 590-635: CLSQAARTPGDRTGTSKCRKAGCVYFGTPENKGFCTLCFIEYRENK

Kd: 384 µM
Substance: K63-linked diubiquitin (K63-Ub2) (from UniProt P0CG48)
